Source: US8524696B2, “Water-soluble compositions of bioactive lipophilic compounds” (priority 1999, dated 2013)

Test system: spontaneously hypertensive rats (SHR)
Assay: Ischemia/reperfusion, middle cerebral artery occlusion model (MCAO), TTC staining
Format: in vivo, rat
Conditions: CoQ10 6 mg/kg intravenously after 60 min occlusion

`COC1=C(OC)C(=O)C(C/C=C(\C)CC/C=C(\C)CC/C=C(\C)CC/C=C(\C)CC/C=C(\C)CC/C=C(\C)CC/C=C(\C)CC/C=C(\C)CC/C=C(\C)CCC=C(C)C)=C(C)C1=O` [CoQ10, Coenzyme Q10] was tested. Which “TTC formazan, Left brain hemisphere” value (1 day after reperfusion) did it give?
Its value is 1206.0 +/− 50.2 OD/g of dry brain tissue.

And the “TTC formazan, Right brain hemisphere” value (1 day after reperfusion)?
Its value is 1200.0 +/− 19.2 OD/g of dry brain tissue.

And the “TTC formazan, Left brain hemisphere” value (2 days after reperfusion)?
The value was 1084.9 +/− 22.2 OD/g of dry brain tissue.

What about the “TTC formazan, Right brain hemisphere” value (2 days after reperfusion) of the same molecule?
Its value is 1060.9 +/− 21.2 OD/g of dry brain tissue.
